From patent US20230140691A1, “OPTICALLY CLEAR, IN-SITU FORMING BIODEGRADABLE NANO-CARRIERS FOR OCULAR THERAPY, AND METHODS USING SAME” (Rowan University, priority 2017, published 2023)

Assay: In vitro drug release from PLGA-PEG-PLGA hydrogel in microfluidic devices at physiological flow rate
Type: physicochemical
Settings: 25 (w/v) % hydrogel, 35° C.
Method: The final volume of the hydrogel solution with the compound of interest was constrained to 100 μL because of the anatomical space in the lens capsule. Physiological flow rate (2.4 μl/min) was achieved using microfluidic devices. The devices resemble the anatomical dimensions of both the anterior and posterior chamber of the human eye, as well as the physiological dynamics of the aqueous humor flow. All of the release studies were conducted at 35° C. • a. Dexamethasone (Hydrophobic): 100 μL of PLGA-PEG-PLGA hydrogel solution at 25 (w/v) % was mixed with 100 μg of dexamethasone. The collected samples were analyzed via HPLC. • b. […] The collected samples were analyzed via fluoresce spectroscopy at an excitation, filter, and emission wavelengths (nm) of 483, 515 524, respectively • c. Nucleic acid conjugates (Hydrophilic): 62 μL of nucleic acid conjugates in PBS solution (31 μg) were mixed with 38 μL of hydrogel solution at a concentration of 25 (w/v) %. Because the nucleic acid conjugates were already dissolved in PBS, the hydrogel solution was diluted down to 14 (w/v) %. The collected samples were analyzed via fluorescence spectroscopy at an excitation, filter, and emission wavelengths (nm) of 642, 665, and 670, respectively. • d. Hyaluronic acid (Hydrophilic): 30 μL of hyaluronic acid (HA, 800 KDa) stock solution at a concentration of 0.5 mg/mL in PBS (15 ug of HA) was mixed with 56 μL of hydrogel solution at a concentration of 25 (w/v) %. In addition, 14 μL of PBS were added to diluted the hydrogel solution down to 14 (w/v) %. Samples containing PLL were prepared by adding to the already mentioned composition 10 mg of PLL (10 (w/v) % PLL). The collected samples were analyzed via fluorescence spectroscopy at an excitation, filter, and emission wavelengths (nm) of 483, 495, 518, respectively.

Substance: FITC-Dextran
- release rate of FITC-dextran from hydrogel (first 55 hours, 100 μg FITC-Dextran (150 KDa) loaded): 0.84 ± 0.14 µg/h
- total amount loaded released (in 5 days (222 hours as printed)): about 52%
- release rate of FITC-dextran from hydrogel (thereafter (after first 55 hours)): 0.23 ± 0.02 µg/h
